The values that follow are results of earlier work, collected in patent US7645795B2, “Method for treating amyotrophic lateral sclerosis” (BodyBio, Inc, priority 2004, dated 2010).

The test system of the data set is ALS patients.

Turning to `Nc1nc2ccc(OC(F)(F)F)cc2s1` [riluzole], the Tolerability result is recorded as “poorly tolerated by a majority of patients”.
